Data: patent US7071185B2, “1,2,3,4,7,8-hexahydro-6H-[1,4]diazepino[6,7,1-ij]quinoline derivatives as antipsychotic and antiobesity agents” (Wyeth, priority 2002, dated 2006)

Sequences of proteins named here, by UniProt entry; tags and fusion partners are left off. Residues count along the entry.
UniProt P28335, 33-458: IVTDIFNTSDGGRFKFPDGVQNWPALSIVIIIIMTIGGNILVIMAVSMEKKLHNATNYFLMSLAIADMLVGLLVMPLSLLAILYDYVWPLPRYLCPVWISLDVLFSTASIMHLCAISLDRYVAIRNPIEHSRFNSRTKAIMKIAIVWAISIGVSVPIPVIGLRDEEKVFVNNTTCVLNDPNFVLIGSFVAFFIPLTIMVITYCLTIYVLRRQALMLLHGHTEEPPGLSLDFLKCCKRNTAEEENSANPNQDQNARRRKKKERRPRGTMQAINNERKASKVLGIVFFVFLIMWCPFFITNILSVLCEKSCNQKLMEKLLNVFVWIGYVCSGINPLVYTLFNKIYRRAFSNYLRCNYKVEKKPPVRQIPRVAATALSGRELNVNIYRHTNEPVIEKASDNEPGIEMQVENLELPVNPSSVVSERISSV

Molecular target: T1, human 5-HT2C receptor (Homo sapiens, UniProt P28335)
T1 construct: expressed in transfected cells
Test: Calcium mobilization in response to 5-HT2C receptor agonists (FLIPR)
Format: cell-based
Details: CHO cells stably expressing human 5-HT2C receptor, Fluo-3 calcium; read-out: EC50, reference compounds

1-(2,5-dimethoxy-4-iodophenyl)isopropylamine [DOI, reference compound]
EC50: 0.5 nM
